pIC50: −log10 of the molar value.
What follows are compounds tested against R132H mutant IDH1 enzyme (Homo sapiens (Human), UniProt O75874, R132H) (assay: R132H IDH1 Enzymatic Assay). Conditions: R132H mutant IDH1 enzyme 1.5 nM final; luminescence (Kinase-GLO) readout.
Type: biochemical

Amino acid sequences for entries named in this document (tags omitted).
UniProt O75874, whole entry R132H: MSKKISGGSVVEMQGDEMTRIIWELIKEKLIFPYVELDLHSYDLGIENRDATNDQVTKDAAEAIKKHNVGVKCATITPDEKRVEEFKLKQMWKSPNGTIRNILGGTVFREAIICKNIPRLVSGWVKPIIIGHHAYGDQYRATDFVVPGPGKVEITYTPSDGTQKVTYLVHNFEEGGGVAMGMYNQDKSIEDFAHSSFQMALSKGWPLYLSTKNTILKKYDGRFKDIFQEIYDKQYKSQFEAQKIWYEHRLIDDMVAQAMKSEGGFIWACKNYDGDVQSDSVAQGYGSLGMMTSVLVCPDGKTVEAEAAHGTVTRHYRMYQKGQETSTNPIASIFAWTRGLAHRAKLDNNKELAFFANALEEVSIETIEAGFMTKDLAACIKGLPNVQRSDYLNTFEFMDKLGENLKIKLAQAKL

pIC50	Compound
4.74	O=C(N1Cc2cccnc2Nc2ccccc21)C12CC(C1)C2 [Example 6, 6-(bicyclo[1.1.1]pent-1-ylcarbonyl)-6,11-dihydro-5H-pyrido[2,3-b][1,5]benzodiazepine]
8.30	Cn1cc(-c2ccc3c(c2)N(C(=O)C2CCc4ccccc4CC2)Cc2cccnc2N3)cn1 [Example 99, 8-(1-Methyl-1H-pyrazol-4-yl)-6-(6,7,8,9-tetrahydro-5H-benzo[7]annulen-7-ylcarbonyl)-6,11-dihydro-5H-pyrido[2,3-b][1,5]benzodiazepine]
6.65	O=C(N1Cc2cccnc2Nc2ccc(N3CCOCC3)cc21)C12CC3CC(CC(F)(C3)C1)C2 [Example 31, 6-[(3-fluorotricyclo[3.3.1.1~3,7~]dec-1-yl)carbonyl]-8-morpholin-4-yl-6,11-dihydro-5H-pyrido[2,3-b][1,5]benzodiazepine]
7.07	O=C([C@H]1CC[C@H]2CCC[C@H]21)N1Cc2cccnc2Nc2ccc(N3CCOCC3)cc21 (single isomer, unassigned) [Example 71]
7.77	O=C([C@H]1COc2ccccc2O1)N1Cc2cccnc2Nc2ccc(N3C[C@H]4CC[C@@H](C3)O4)cc21 [Example 76, 6-[(2R)-2,3-dihydro-1,4-benzodioxin-2-ylcarbonyl]-8-[(1R,5S)-8-oxa-3-azabicyclo[3.2.1]oct-3-yl]-6,11-dihydro-5H-pyrido[2,3-b][1,5]benzodiazepine]
7.66	CN(C)c1ccc2c(n1)N(C(=O)C1CCc3ccccc3CC1)Cc1cccnc1N2 [Example 117, N,N-Dimethyl-11-(6,7,8,9-tetrahydro-5H-benzo[7]annulen-7-ylcarbonyl)-10,11-dihydro-5H-dipyrido[2,3-b:2′,3′-e][1,4]diazepin-2-amine]
5.61	O=C([C@@H]1CC[C@@H]2OCCC[C@H]2C1)N1Cc2cccnc2Nc2ccc(N3CCOCC3)cc21 [Example 49, 8-morpholin-4-yl-6-[(4aS,6R,8aS)-octahydro-2H-chromen-6-ylcarbonyl]-6,11-dihydro-5H-pyrido[2,3-b][1,5]benzodiazepine]
7.01	O=C(N1Cc2cccnc2Nc2ccc(N3CCOCC3)cc21)C12CC3CC(F)(CC(F)(C3)C1)C2 [Example 32, 6-[(3,5-difluorotricyclo[3.3.1.1~3,7~]dec-1-yl)carbonyl]-8-morpholin-4-yl-6,11-dihydro-5H-pyrido[2,3-b][1,5]benzodiazepine]
7.66	CC(C)[C@@H]1COC(=O)N1c1ccc2c(c1)N(C(=O)[C@]13C[C@H]4C[C@H](C[C@H](C4)C1)C3)Cc1cccnc1N2 [Example 119, (4R)-4-(1-Methylethyl)-3-{6-[(3S,5S,7S)-tricyclo[3.3.1.1˜3,7˜]dec-1-ylcarbonyl]-6,11-dihydro-5H-pyrido[2,3-b][1,5]benzodiazepin-8-yl}-1,3-oxazolidin-2-one]
7.74	CCOc1ccc2c(n1)N(C(=O)C1CCc3ccccc3CC1)Cc1cccnc1N2 [Example 110, 2-Ethoxy-11-(6,7,8,9-tetrahydro-5H-benzo[7]annulen-7-ylcarbonyl)-10,11-dihydro-5H-dipyrido[2,3-b:2′,3′-e][1,4]diazepine]
5.82	CCOC1CC2(C1)CC(C(=O)N1Cc3cccnc3Nc3ccc(N4CCOCC4)cc31)C2 (stereo not shown) [Example 87, 6-[(6-ethoxyspiro[3.3]hept-2-yl)carbonyl]-8-morpholin-4-yl-6,11-dihydro-5H-pyrido[2,3-b][1,5]benzodiazepine]
7.32	CO[C@@H]1CC[C@@H]2[C@H]1CC[C@@H]2C(=O)N1Cc2cccnc2Nc2ccc(N3CC4CCC(C3)O4)cc21 (single isomer, unassigned) [Example 83]
6.20	CC(C)N(C)C(=O)C12CCC(C(=O)N3Cc4cccnc4Nc4ccccc43)(CC1)CC2 [Example 94, 4-(5,11-dihydro-6H-pyrido[2,3-b][1,5]benzodiazepin-6-ylcarbonyl)-N-methyl-N-(1-methylethyl)bicyclo[2.2.2]octane-1-carboxamide]
5.73	O=C([C@@H]1CC[C@H]2OCCC[C@@H]2C1)N1Cc2cccnc2Nc2ccc(N3CCOCC3)cc21 [Example 48, 8-morpholin-4-yl-6-[(4aR,6R,8aR)-octahydro-2H-chromen-6-ylcarbonyl]-6,11-dihydro-5H-pyrido[2,3-b][1,5]benzodiazepine]
4.40	O=C(O)C1CC2(C1)CC(C(=O)N1Cc3cccnc3Nc3ccccc31)C2 (stereo not shown) [Example 9, 6-(5,11-dihydro-6H-pyrido[2,3-b][1,5]benzodiazepin-6-ylcarbonyl)spiro[3.3]heptane-2-carboxylic acid]
5.42	CC1(F)CN(C(=O)C23CCC(C(=O)N4Cc5cccnc5Nc5ccccc54)(CC2)CC3)C1 [Example 90, 6-({4-[(3-fluoro-3-methylazetidin-1-yl)carbonyl]bicyclo[2.2.2]oct-1-yl}carbonyl)-6,11-dihydro-5H-pyrido[2,3-b][1,5]benzodiazepine]
4.44	O=C(C1CCC2(CCO2)CC1)N1Cc2cccnc2Nc2ccc(N3CCOCC3)cc21 (stereo not shown) [Example 121, 8-Morpholin-4-yl-6-(1-oxaspiro[3.5]non-7-ylcarbonyl)-6,11-dihydro-5H-pyrido[2,3-b][1,5]benzodiazepine]

pIC50	Compound
4.96	O=C([C@H]1CC[C@@H]2OCCC[C@H]2C1)N1Cc2cccnc2Nc2ccc(N3CCOCC3)cc21 [Example 47, 8-morpholin-4-yl-6-[(4aS,6S,8aS)-octahydro-2H-chromen-6-ylcarbonyl]-6,11-dihydro-5H-pyrido[2,3-b][1,5]benzodiazepine]
5.72	O=C(C1CCCCC12CC2)N1Cc2cccnc2Nc2ccc(N3CCOCC3)cc21 (stereo not shown) [Example 69, 8-morpholin-4-yl-6-(spiro[2.5]oct-4-ylcarbonyl)-6,11-dihydro-5H-pyrido[2,3-b][1,5]benzodiazepine]
7.19	CCO[C@@H]1CC[C@H]2[C@@H]1CC[C@H]2C(=O)N1Cc2cccnc2Nc2ccc(N3C[C@@H]4C[C@H]3CO4)cc21 (racemic) [Example 85, 6-{[(1R,3aS,4R,6aS)-4-ethoxyoctahydropentalen-1-yl]carbonyl}-8-[(1S,4S)-2-oxa-5-azabicyclo[2.2.1]hept-5-yl]-6,11-dihydro-5H-pyrido[2,3-b][1,5]benzodiazepine]
6.40	O=C([C@@H]1CC[C@@H]2CCC[C@@H]21)N1Cc2cccnc2Nc2ccc(N3CCOCC3)cc21 (single isomer, unassigned) [Example 72]
5.76	O=C(N1Cc2cccnc2Nc2ccc(N3CCOCC3)cc21)C12CCC(CC1)C2 [Example 17, 6-(bicyclo[2.2.1]hept-1-ylcarbonyl)-8-morpholin-4-yl-6,11-dihydro-5H-pyrido[2,3-b][1,5]benzodiazepine]
6.81	O=C(C1Cc2ccccc2C1)N1Cc2cccnc2Nc2ccccc21 [Example 11, 6-(2,3-dihydro-1H-inden-2-ylcarbonyl)-6,11-dihydro-5H-pyrido[2,3-b][1,5]benzodiazepine]
8.52	O=C(C1CCc2ccccc2CC1)N1Cc2cccnc2Nc2ccc(-c3ccnc(N4CCC(O)C4)c3)cc21 (stereo not shown) [Example 106, 1-{4-[6-(6,7,8,9-tetrahydro-5H-benzo[7]annulen-7-ylcarbonyl)-6,11-dihydro-5H-pyrido[2,3-b][1,5]benzodiazepin-8-yl]pyridin-2-yl}pyrrolidin-3-ol]
7.11	CC1CC(C(=O)N2Cc3cccnc3Nc3ccc(N4CCOCC4)cc32)C2CCCC12 (stereo not shown) [Example 70, 6-[(3-methyloctahydropentalen-1-yl)carbonyl]-8-morpholin-4-yl-6,11-dihydro-5H-pyrido[2,3-b][1,5]benzodiazepine]
5.72	COC1CC2(C1)CC(C(=O)N1Cc3cccnc3Nc3ccc(N4CCOCC4)cc31)C2 (stereo not shown) [Example 86, 6-[(6-Methoxyspiro[3.3]hept-2-yl)carbonyl]-8-morpholin-4-yl-6,11-dihydro-5Hpyrido[2,3-b][1,5]benzodiazepine]
7.22	CCO[C@H]1CC[C@H]2[C@@H]1CC[C@H]2C(=O)N1Cc2cccnc2Nc2ccc(N3CCOCC3)cc21 (racemic) [Example 77, 6-{[(1R,3aS,4S,6aS)-4-ethoxyoctahydropentalen-1-yl]carbonyl}-8-morpholin-4-yl-6,11-dihydro-5H-pyrido[2,3-b][1,5]benzodiazepine]
6.93	COc1cccc2c1CC(C(=O)N1Cc3cccnc3Nc3ccc(N4CCOCC4)cc31)CC2 (stereo not shown) [Example 96, 6-[(8-methoxy-1,2,3,4-tetrahydronaphthalen-2-yl)carbonyl]-8-morpholin-4-yl-6,11-dihydro-5H-pyrido[2,3-b][1,5]benzodiazepine]
5.97	O=C(N1Cc2cccnc2Nc2ccccc21)C12CCC(CC1)CC2 [Example 24, 6-(bicyclo[2.2.2]oct-1-ylcarbonyl)-6,11-dihydro-5H-pyrido[2,3-b][1,5]benzodiazepine]
7.25	CCO[C@@H]1CC[C@@H]2[C@H]1CC[C@@H]2C(=O)N1Cc2cccnc2Nc2ccc(N3C[C@@H]4C[C@H]3CO4)cc21 (single isomer, unassigned) [Example 84]
6.92	O=C([C@H]1COc2ccccc2O1)N1Cc2cccnc2Nc2ccc(CCC(F)(F)F)cc21 [Example 127, (R)-(2,3-Dihydrobenzo[b][1,4]dioxin-2-yl)(8-(3,3,3-trifluoropropyl)-5,11-dihydro-6H-benzo[b]pyrido[2,3-e][1,4]diazepin-6-yl)methanone]
7.02	O=C(C1CCc2ccccc2O1)N1Cc2cccnc2Nc2ccc(N3CCOCC3)cc21 (stereo not shown) [Example 41, 6-(3,4-dihydro-2H-chromen-2-ylcarbonyl)-8-morpholin-4-yl-6,11-dihydro-5H-pyrido[2,3-b][1,5]benzodiazepine]
8.52	Cc1ncc(-c2ccc3c(c2)N(C(=O)C2CCc4ccccc4CC2)Cc2cccnc2N3)n1C [Example 100, 8-(1,2-dimethyl-1H-imidazol-5-yl)-6-(6,7,8,9-tetrahydro-5H-benzo[7]annulen-7-ylcarbonyl)-6,11-dihydro-5H-pyrido[2,3-b][1,5]benzodiazepine]

Compound	pIC50
O=C1CC(c2ccc3c(c2)N(C(=O)C2CCc4ccccc4CC2)Cc2cccnc2N3)CN1 (stereo not shown) [Example 120, 4-[6-(6,7,8,9-Tetrahydro-5H-benzo[7]annulen-7-ylcarbonyl)-6,11-dihydro-5H-pyrido[2,3-b][1,5]benzodiazepin-8-yl]pyrrolidin-2-one]	8.40
